Molecular target: Platelet-derived growth factor receptor beta (Homo sapiens, UniProt P09619)
Experiment: Inhibition of PDGFRbeta in human SF539 cells by phosphotyrosine cell-based ELISA
Design: species or system SF-539

Protein sequences, listed by entry. Tags and fused reporters are not part of them.
UniProt P09619, whole entry: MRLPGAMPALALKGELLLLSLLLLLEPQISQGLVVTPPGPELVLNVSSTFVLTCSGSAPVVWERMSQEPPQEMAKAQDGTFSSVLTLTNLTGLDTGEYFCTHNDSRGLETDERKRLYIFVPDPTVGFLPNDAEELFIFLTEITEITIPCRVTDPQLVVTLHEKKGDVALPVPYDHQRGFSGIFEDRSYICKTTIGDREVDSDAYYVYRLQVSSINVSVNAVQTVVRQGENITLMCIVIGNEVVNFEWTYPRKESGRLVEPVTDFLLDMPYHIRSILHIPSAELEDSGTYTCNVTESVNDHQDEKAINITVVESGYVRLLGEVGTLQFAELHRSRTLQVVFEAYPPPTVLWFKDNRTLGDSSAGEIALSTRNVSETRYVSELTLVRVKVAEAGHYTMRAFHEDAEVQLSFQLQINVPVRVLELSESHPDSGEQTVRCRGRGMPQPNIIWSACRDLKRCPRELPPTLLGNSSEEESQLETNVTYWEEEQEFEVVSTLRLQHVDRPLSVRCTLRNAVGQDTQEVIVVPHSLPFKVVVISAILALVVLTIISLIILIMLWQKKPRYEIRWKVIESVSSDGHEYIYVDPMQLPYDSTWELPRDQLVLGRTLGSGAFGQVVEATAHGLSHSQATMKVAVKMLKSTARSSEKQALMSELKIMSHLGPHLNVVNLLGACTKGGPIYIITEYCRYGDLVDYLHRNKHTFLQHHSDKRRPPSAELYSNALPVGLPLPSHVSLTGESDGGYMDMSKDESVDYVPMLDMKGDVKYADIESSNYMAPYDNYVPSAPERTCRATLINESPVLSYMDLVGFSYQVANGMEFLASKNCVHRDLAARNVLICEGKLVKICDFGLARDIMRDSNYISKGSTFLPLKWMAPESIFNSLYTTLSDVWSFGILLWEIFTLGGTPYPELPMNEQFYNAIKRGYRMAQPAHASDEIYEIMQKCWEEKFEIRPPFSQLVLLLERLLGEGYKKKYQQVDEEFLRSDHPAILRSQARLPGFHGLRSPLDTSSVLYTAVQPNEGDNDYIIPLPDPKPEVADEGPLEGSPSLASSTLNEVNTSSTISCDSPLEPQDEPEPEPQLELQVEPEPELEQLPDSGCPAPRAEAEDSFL

IC50: 3.75 µM
Compound: CN(C)c1ccc(/C=C2\C(=O)Nc3ccccc32)cc1
